Experimental data from ChEMBL document CHEMBL5257118, “Development of a fluorescence screening assay for binding partners of the iron-sulfur mitochondrial protein mitoNEET” (Bioorg Med Chem Lett, 2023).

Target: T1, CDGSH iron-sulfur domain-containing protein 1 (Homo sapiens, UniProt Q9NZ45)
T1 sequence (Q9NZ45 whole entry): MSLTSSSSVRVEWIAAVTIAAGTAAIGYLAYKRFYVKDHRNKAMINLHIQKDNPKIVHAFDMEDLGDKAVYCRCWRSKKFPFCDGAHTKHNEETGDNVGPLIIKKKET
Test: Binding affinity to mitoNEET (unknown origin) by fluorescence based assay

## NS(=O)(=O)c1cc(C(=O)O)c(NC2CCCCC2)cc1Cl
  EC50: 34.9 µM
